{
  "source": "paper PMC4596243",
  "about": "(Cancer chemotherapy and pharmacology, 2013)",
  "origin": "cited, not measured here",
  "system": "intracerebral glioma",
  "details": "mouse, in vivo; cited from earlier work",
  "data": [
    {"smiles": "CCN(CC)CCNC(=O)c1c(C)[nH]c(/C=C2\\C(=O)Nc3ccc(F)cc32)c1C", "note": "[sunitinib]", "values": [
      {"measurement": "effect when combined with TMZ", "value": "synergistic effect"}
    ]}
  ]
}
